Reference: patent publication US20050037506A1, “Methods of determining film thicknesses for an aerosol delivery article” (published 2005)

experiment: not given; conditions: alprazolam film ~1.3 microns, stainless steel foil, vaporized at 13 V (peak substrate temperature 240° C.)

Row | Compound | percent yield
1 | Cc1nnc2n1-c1ccc(Cl)cc1C(c1ccccc1)=NC2 | 11.5%

same assay, conditions: alprazolam film ~1.3 microns, stainless steel foil, vaporized at 16 V

Row | Compound | percent yield
2 | Cc1nnc2n1-c1ccc(Cl)cc1C(c1ccccc1)=NC2 | 93.4%

experiment: Thickness and temperature window for selected minimum aerosol purity and yield (Methods B and D); conditions: window from plots of purity and yield versus temperature and film thickness (FIGS. 12C-19C)

Row | Compound | aerosol purity within the thickness and temperature window obtained | aerosol yield within the thickness and temperature window obtained
3 | CC(C)(C)NCC(O)c1ccc(O)c(CO)c1 (stereo not shown) | greater than 95% | greater than 85%
4 | CC1(C)O[C@@H]2C[C@H]3[C@@H]4C[C@H](F)C5=CC(=O)C=C[C@]5(C)[C@H]4[C@@H](O)C[C@]3(C)[C@]2(C(=O)CO)O1 | greater than 90% | greater than 85%
5 | eletriptan | greater than 95% | greater than 75%
6 | prochlorperazine | greater than 98% | greater than 85%
7 | sildenafil | greater than 98% | greater than 90%
8 | tadalafil | greater than 95% | greater than 90%
9 | valdecoxib | greater than 90% | greater than 50%
